Measurements: patent US12171806B2, “Therapeutic regimens and methods for lowering blood glucose and/or body weight using GLP-1R and GCGR balanced agonists” (priority 2021, dated 2024)

Assay: Phase 1 MAD study of ALT-801: adverse events (TEAEs), safety overview

CC[C@H](C)[C@H](NC(=O)[C@H](Cc1ccccc1)NC(=O)[C@H](CCC(=O)O)NC(=O)[C@@H]1CCCCNC(=O)CC[C@H](NC(=O)[C@H](CC(=O)O)NC(=O)[C@H](CC(C)C)NC(=O)[C@H](Cc2ccc(O)cc2)NC(=O)[C@H](CCCCN)NC(=O)[C@H](CO)NC(=O)[C@H](Cc2ccc(O)cc2)NC(=O)[C@H](CC(=O)O)NC(=O)[C@H](CO)NC(=O)[C@@H](NC(=O)[C@H](Cc2ccccc2)NC(=O)[C@@H](NC(=O)CNC(=O)[C@H](CCC(N)=O)NC(=O)C(C)(C)NC(=O)[C@@H](N)Cc2c[nH]cn2)[C@@H](C)O)[C@@H](C)O)C(=O)N[C@@H](CCCCNC(=O)[C@H]2O[C@@H](OCCCCCCCCCCCCCCCCCC(=O)O)[C@H](O)[C@@H](O)[C@@H]2O)C(=O)N[C@@H](C)C(=O)N[C@@H](C)C(=O)N1)C(=O)N[C@@H](CCC(N)=O)C(=O)N[C@@H](Cc1c[nH]c2ccccc12)C(=O)N[C@@H](CC(C)C)C(=O)N[C@@H](CC(C)C)C(=O)N[C@@H](CCC(N)=O)C(=O)N[C@H](C(N)=O)[C@@H](C)O [ALT-801, pemvidutide]
(0.0%): TEAE Vascular disorders, maximum severity PLT, subjects % (M2 1.8 mg ALT-801 (N = 9)) | TEAE Vascular disorders, maximum severity Severe, subjects % (M2 1.8 mg ALT-801 (N = 9)) | Any TEAE; PLT; % (M3 2.4 mg (N = 11)) | Any TEAE; Severe; % (M3 2.4 mg (N = 11)) | TEAE Abdominal discomfort; Moderate; % (M3 2.4 mg (N = 11)) | TEAE Abdominal discomfort; PLT; % (M3 2.4 mg (N = 11)) | TEAE Abdominal discomfort; Severe; % (M3 2.4 mg (N = 11)) | TEAE Abdominal distension; Moderate; % (M3 2.4 mg (N = 11)) | TEAE Abdominal distension; PLT; % (M3 2.4 mg (N = 11)) | TEAE Abdominal distension; Severe; % (M3 2.4 mg (N = 11)) | TEAE Abdominal pain; Moderate; % (M3 2.4 mg (N = 11)) | TEAE Abdominal pain; PLT; % (M3 2.4 mg (N = 11)) | TEAE Abdominal pain; Severe; % (M3 2.4 mg (N = 11)) | TEAE Anaemia; Mild; % (M3 2.4 mg (N = 11)) | TEAE Anaemia; Moderate; % (M3 2.4 mg (N = 11)) | TEAE Anaemia; PLT; % (M3 2.4 mg (N = 11)) | TEAE Anaemia; Severe; % (M3 2.4 mg (N = 11)) | TEAE Application site bruise; Mild; % (M3 2.4 mg (N = 11)) | TEAE Application site bruise; Moderate; % (M3 2.4 mg (N = 11)) | TEAE Application site bruise; PLT; % (M3 2.4 mg (N = 11)) | TEAE Application site bruise; Severe; % (M3 2.4 mg (N = 11)) | TEAE Application site erythema; Mild; % (M3 2.4 mg (N = 11)) | TEAE Application site erythema; Moderate; % (M3 2.4 mg (N = 11)) | TEAE Application site erythema; PLT; % (M3 2.4 mg (N = 11)) | TEAE Application site erythema; Severe; % (M3 2.4 mg (N = 11)) | TEAE Blood and lymphatic system disorders; Mild; % (M3 2.4 mg (N = 11)) | TEAE Blood and lymphatic system disorders; Moderate; % (M3 2.4 mg (N = 11)) | TEAE Blood and lymphatic system disorders; PLT; % (M3 2.4 mg (N = 11)) | TEAE Blood and lymphatic system disorders; Severe; % (M3 2.4 mg (N = 11)) | TEAE Cardiac disorders; Moderate; % (M3 2.4 mg (N = 11)) | TEAE Cardiac disorders; PLT; % (M3 2.4 mg (N = 11)) | TEAE Cardiac disorders; Severe; % (M3 2.4 mg (N = 11)) | TEAE Constipation; Potentially PLT; % (M3 2.4 mg (N = 11)) | TEAE Constipation; Severe; % (M3 2.4 mg (N = 11)) | TEAE Diarrhoea; Moderate; % (M3 2.4 mg (N = 11)) | TEAE Diarrhoea; PLT; % (M3 2.4 mg (N = 11))
6: Any TEAE; Mild; n (M3 2.4 mg (N = 11))
4: TEAE Abdominal pain; Mild; n (M3 2.4 mg (N = 11))
1: TEAE Abdominal discomfort; Mild; n (M3 2.4 mg (N = 11)) | TEAE Abdominal distension; Mild; n (M3 2.4 mg (N = 11)) | TEAE Constipation; Moderate; n (M3 2.4 mg (N = 11))
5: Any TEAE; Moderate; n (M3 2.4 mg (N = 11))
2: TEAE Cardiac disorders; Mild; n (M3 2.4 mg (N = 11)) | TEAE Constipation; Mild; n (M3 2.4 mg (N = 11)) | TEAE Diarrhoea; Mild; n (M3 2.4 mg (N = 11))
(45.5%): Any TEAE; Moderate; % (M3 2.4 mg (N = 11))
(18.2%): TEAE Cardiac disorders; Mild; % (M3 2.4 mg (N = 11)) | TEAE Constipation; Mild; % (M3 2.4 mg (N = 11)) | TEAE Diarrhoea; Mild; % (M3 2.4 mg (N = 11))
0: TEAE Vascular disorders, maximum severity PLT, subjects n (M2 1.8 mg ALT-801 (N = 9)) | TEAE Vascular disorders, maximum severity Severe, subjects n (M2 1.8 mg ALT-801 (N = 9)) | Any TEAE; PLT; n (M3 2.4 mg (N = 11)) | Any TEAE; Severe; n (M3 2.4 mg (N = 11)) | TEAE Abdominal discomfort; Moderate; n (M3 2.4 mg (N = 11)) | TEAE Abdominal discomfort; PLT; n (M3 2.4 mg (N = 11)) | TEAE Abdominal discomfort; Severe; n (M3 2.4 mg (N = 11)) | TEAE Abdominal distension; Moderate; n (M3 2.4 mg (N = 11)) | TEAE Abdominal distension; PLT; n (M3 2.4 mg (N = 11)) | TEAE Abdominal distension; Severe; n (M3 2.4 mg (N = 11)) | TEAE Abdominal pain; Moderate; n (M3 2.4 mg (N = 11)) | TEAE Abdominal pain; PLT; n (M3 2.4 mg (N = 11)) | TEAE Abdominal pain; Severe; n (M3 2.4 mg (N = 11)) | TEAE Anaemia; Mild; n (M3 2.4 mg (N = 11)) | TEAE Anaemia; Moderate; n (M3 2.4 mg (N = 11)) | TEAE Anaemia; PLT; n (M3 2.4 mg (N = 11)) | TEAE Anaemia; Severe; n (M3 2.4 mg (N = 11)) | TEAE Application site bruise; Mild; n (M3 2.4 mg (N = 11)) | TEAE Application site bruise; Moderate; n (M3 2.4 mg (N = 11)) | TEAE Application site bruise; PLT; n (M3 2.4 mg (N = 11)) | TEAE Application site bruise; Severe; n (M3 2.4 mg (N = 11)) | TEAE Application site erythema; Mild; n (M3 2.4 mg (N = 11)) | TEAE Application site erythema; Moderate; n (M3 2.4 mg (N = 11)) | TEAE Application site erythema; PLT; n (M3 2.4 mg (N = 11)) | TEAE Application site erythema; Severe; n (M3 2.4 mg (N = 11)) | TEAE Blood and lymphatic system disorders; Mild; n (M3 2.4 mg (N = 11)) | TEAE Blood and lymphatic system disorders; Moderate; n (M3 2.4 mg (N = 11)) | TEAE Blood and lymphatic system disorders; PLT; n (M3 2.4 mg (N = 11)) | TEAE Blood and lymphatic system disorders; Severe; n (M3 2.4 mg (N = 11)) | TEAE Cardiac disorders; Moderate; n (M3 2.4 mg (N = 11)) | TEAE Cardiac disorders; PLT; n (M3 2.4 mg (N = 11)) | TEAE Cardiac disorders; Severe; n (M3 2.4 mg (N = 11)) | TEAE Constipation; Potentially PLT; n (M3 2.4 mg (N = 11)) | TEAE Constipation; Severe; n (M3 2.4 mg (N = 11)) | TEAE Diarrhoea; Moderate; n (M3 2.4 mg (N = 11))
(9.1%): TEAE Abdominal discomfort; Mild; % (M3 2.4 mg (N = 11)) | TEAE Abdominal distension; Mild; % (M3 2.4 mg (N = 11)) | TEAE Constipation; Moderate; % (M3 2.4 mg (N = 11))
(54.5%): Any TEAE; Mild; % (M3 2.4 mg (N = 11))
(36.4%): TEAE Abdominal pain; Mild; % (M3 2.4 mg (N = 11))
